For this assay, the system named is NCI-H23. As to the kind of experiment: NCI tumour cell line growth inhibition, 48 h.

Experimental findings from ChEMBL document CHEMBL1201862, “PubChem BioAssay data set” (2004) are described below.

Several values for one entry are separate records, joined by “and”; a condition that tells them apart may be missing. Equal values may be shown once.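 Tested at 5 concentrations; 48 h exposure; 96-well plates; endpoints linearly interpolated, else capped at highest concentration. GI50 marks 50% less growth.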 Activity calls are given as the source filed them. No stated cut-off is given here; in the data, active = GI50 up to about 1.1 µM and inactive = higher. Some results are limits rather than exact numbers.

Regarding `O=C(NC(=O)c1cn(C2OC(CO)C(O)C2O)c(=O)[nH]c1=O)OCc1ccccc1` (stereo unspecified), the GI50 was inactive: > 100 µM and inactive: 85.5 µM.
